An excerpt weighted towards active compounds, which were near 2.3% of everything screened.
A549 viability = kills or reduces viability of A549 cells in Nrf2 counter-screen; A549 ARE-Fluc cells, CellTiter-Fluor viability, 18-24 h; Potency, µM (series often up to 46 µM), for inactives: top-dose activity change, negative = cytotoxicity, actives largely listed as inhibitors; actives 0.16% (n = 390,000); AID 504648; note: potency is the fitted concentration of half-maximal effect; % is set by controls: 0 for no effect and ±100 for the full control effect
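A549 ARE-Fluc cells in 5% FBS OPTI-MEM, 5000 cells/well, rested 2 h then exposed to compounds in concentration-response for 18-24 h at 37 °C. Viability by CellTiter-Fluor fluorescence (Ex 405/Em 525) after 30 min; luciferase luminescence (BugLite, 15 min, RT) read afterwards.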
GRP78 ERSR act = ER stress response induction in glioma; AID 602332; Potency, µM, without a hit: top-dose activation, hits mostly activators; actives 0.02% (n = 420,000); U87-MG GRP78 promoter luciferase reporter, 16 h; note: potency is the fitted concentration of half-maximal effect; series mostly up to about 76 µM; % of control where 0% means no effect; nearly all actives have a fitted effect of over 35% in size
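Stably transfected U87-MG human glioma cells carrying a GRP78-based luminescent sensor were seeded at 1000 cells/well, pin-dosed with compounds and incubated 16 h. Luciferase reagent was then added, and end-point luminescence was read after 10 min at room temperature.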
Nrf2 ARE act = activates Nrf2 signaling. AREc32 ARE-luciferase reporter (MCF7-derived line), luminescence, 24 h. actives 0.31% (n = 410,000). Potency, µM (top dose mostly 46.1 µM), for inactives: at the highest dose activation, hits mostly activators. AID 624171; note: potency is the fitted concentration of half-maximal effect; % of control where 0% means no effect; nearly all actives have a fitted effect of over 65% in size
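For detection, Steady-Glo was added and plates sat 30 min at RT; before that, AREc32_Fluc cells grown overnight in OPTI-MEM/5% FBS had been treated with 23 nL compound for 24 hr at 37 deg C.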
Nrf2 inh = blocks Nrf2 signaling | AID 504444 | A549 ARE-Fluc reporter, luciferase luminescence, 18-24 h | actives 2.1% (n = 360,000) | Potency, µM (doses to about 46 µM), for inactives: top-dose activity change, negative = inhibition, most hits filed as inhibitors; note: potency is the fitted concentration of half-maximal effect; % is set by controls: 0 for no effect and ±100 for the full control effect; nearly all actives have a fitted effect of over 60% in size
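Nrf2 function is reported as luminescence of an ARE-controlled luciferase in A549 cells. Compounds were tested at several concentrations, and a CellTiter-Fluor read on the same wells flagged cytotoxicity.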
miR-21 reporter = miR-21 reporter, rising signal; HeLa miR-21 FLuc reporter, luciferase, 48 h; Potency, µM (titrated, usually from 38.3 µM), for the others: at the top dose reporter change, positive = more light; 340,000 tested, under 10 active; AID 2288; active = well fitted rising curve with a large enough effect; inconclusive = small, poorly fitted or top-dose-only effect; inactive = no such curve, though single readings can be large or run the other way;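 also: % of control where 0% means no effect; miR-21 action dims this reporter so a rising signal means less miR-21 action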
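Using DMEM plus 10% FBS, HeLa miR-21-FLuc cells are incubated with test compounds (final up to about 40uM) for 48 hours; firefly luciferase signal is then imaged following reagent-mediated lysis.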
Mito fusion act = blocks mitochondrial division or promotes mitochondrial fusion. S. cerevisiae fusion-defective mutant growth rescue, CellTiterGlo 48 h. Potency, µM (series often up to 46.1 µM), without a hit: top-dose growth rescue (activation), actives largely listed as activators. actives 0.23% (n = 320,000). AID 485298; note: potency is the fitted concentration of half-maximal effect; % of control where 0% means no effect; nearly all actives have a fitted effect of over 45% in size
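Compounds are tested for their ability to restore growth of mitochondrial fusion-defective yeast strains at non-permissive 37C in YPEG medium over 48 hours. Viability is quantified by luciferase luminescence.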
The depositor's hits bear a star; ? = inconclusive; . = no result. Unless noted, calls come from the whole dose curve; as a rule, active = well fitted curve in the direction sought with a large enough effect; inconclusive = small, poorly fitted or top-dose-only effect, or another doubt; inactive = no such curve, though single readings can be large; an effect the other way counts as inactive or inconclusive.

Short keys: A = A549 viability; B = GRP78 ERSR act; C = Nrf2 ARE act; D = Nrf2 inh; E = miR-21 reporter; F = Mito fusion act
1: Cc1ccc(NC(=O)c2c(NC(=O)C(F)(F)F)sc3c2CCCCC3)cc1
  A: ?; B: -2%; C: -1%; D: 2.6µM*; E: ?; F: .
2: O=C(Nc1cccc(Cl)c1)c1c(NC(=O)C(F)(F)F)sc2c1CCCC2
  A: ?; B: -6%; C: 0%; D: ?; E: 15%; F: .
3: Cc1cccc(NC(=O)c2c(NC(=O)C(F)(F)F)sc3c2CCCCC3)c1
  A: ?; B: 11%; C: -3%; D: 2.6µM*; E: ?; F: .
4: COc1ccc(S(=O)(=O)N2Cc3ccccc3CC2C(=O)O)cc1OC (configuration not stated)
  A: 1%; B: -5%; C: -1%; D: 1%; E: -4%; F: 0%
5: Cc1occc1-c1nnc(SCC(=O)Nc2c(F)cccc2F)n1C
  A: 4%; B: -5%; C: 0%; D: -17%; E: .; F: -2%
6: Cc1csc(NC(=O)C2COc3ccccc3O2)n1 (configuration not stated)
  A: 10%; B: -12%; C: 1%; D: .; E: 11%; F: -2%
7: C[C@H](O)[C@@H]1C(=O)N2CCc3ccc(-c4ccccc4)cc3[C@@H]2C[C@@H]1N(C)C(=O)c1ccc(C#N)cc1
  A: -15%; B: 1%; C: 8%; D: -20%; E: .; F: .
8: CCc1ccc2ncc(S(=O)(=O)c3ccc(C)c(C)c3)c(N3CCCC3)c2c1
  A: -11%; B: -5%; C: 6%; D: 23µM*; E: -1%; F: -2%
9: Cc1ccc(-c2n[nH]c(=S)n2Cc2ccccc2)cc1
  A: -8%; B: -4%; C: 0%; D: ?; E: -3%; F: 12%
10: S=c1[nH]nc(-c2cc3ccccc3o2)n1Cc1ccccc1
  A: -1%; B: 9%; C: 3%; D: ?; E: -10%; F: 14µM*
11: Cc1ccc(/C=C/c2onc(C)c2S(=O)(=O)N2CCC(C(=O)N3CCOc4ccc(C)cc43)CC2)cc1
  A: 7%; B: -4%; C: 0%; D: .; E: 0%; F: .
12: Cc1cc(=O)c2ccccc2n1Cc1ccccc1
  A: -7%; B: -2%; C: 6%; D: 16µM*; E: 5%; F: 2%
13: Nc1ccc(OC(=O)Nc2ccc(O)cc2)cc1
  A: -6%; B: -10%; C: 10%; D: 21µM*; E: 27%; F: -7%
14: COc1ccccc1N1CCN(S(=O)(=O)c2ccc(-c3cc(C(F)(F)F)on3)s2)CC1
  A: ?; B: -4%; C: -1%; D: -21%; E: 8%; F: .
15: CCN(CC)c1ccc(NC2=C(Cl)C(=O)c3ccccc3C2=O)cc1
  A: 21µM*; B: -13%; C: ?; D: ?; E: -50%; F: -2%

Further structures.
Short keys: A = A549 viability; B = GRP78 ERSR act; C = Nrf2 ARE act; D = Nrf2 inh; E = miR-21 reporter; F = Mito fusion act
16: O=C(Nc1nnc(Cc2ccccc2)s1)c1ccco1
  A: -3%; B: 5%; C: 25%; D: ?; E: -50%; F: 4%
17: NC(=O)c1cc(Cc2ccccc2)sc1NC(=O)c1ccco1
  A: -13%; B: 7%; C: 7%; D: .; E: -47%; F: 16µM*
18: CC1CN(c2nc3c(c(=O)n(Cc4ccc(Cl)c(Cl)c4)c(=O)n3C)n2C)CC(C)O1 (configuration not stated)
  A: ?; B: -2%; C: 0%; D: 23µM*; E: 13%; F: ?
19: Cn1c(N2CCOCC2)nc2c1c(=O)n(Cc1ccc(Cl)cc1)c(=O)n2C
  A: -3%; B: 0%; C: 0%; D: ?; E: .; F: .
20: Cc1nc(-c2ccc(S(=O)(=O)N(C)Cc3ccccc3)cc2)co1
  A: 9%; B: -1%; C: 1%; D: .; E: -8%; F: .
21: Cc1cc(NC(=O)COC(=O)c2cc([N+](=O)[O-])ccc2N2CCOCC2)ccc1Br
  A: ?; B: -1%; C: 0%; D: 18µM*; E: .; F: 7%
22: O=C(COC(=O)c1cc([N+](=O)[O-])ccc1N1CCOCC1)c1ccc(Br)cc1
  A: ?; B: -3%; C: 4%; D: 26µM*; E: .; F: 3%
23: O=C(COC(=O)c1cc([N+](=O)[O-])ccc1NCCO)Nc1cccc(S(=O)(=O)N2CCCC2)c1
  A: -17%; B: -4%; C: 0%; D: -21%; E: .; F: -1%
24: O=C(COC(=O)c1cc([N+](=O)[O-])ccc1NCCO)Nc1ccc2c(c1)OCO2
  A: ?; B: -3%; C: 4%; D: 10µM*; E: -8%; F: -3%
25: CCOc1ccc(C(=O)COC(=O)c2cc([N+](=O)[O-])ccc2N2CCOCC2)cc1
  A: -6%; B: -5%; C: 0%; D: 18%; E: .; F: -4%
26: C=CCn1c(SCc2csc(C)n2)nc2sc3c(c2c1=O)CCCCC3
  A: .; B: -6%; C: 0%; D: ?; E: -6%; F: 21%
27: C=CCn1c(SCc2csc(C)n2)nc2sc3c(c2c1=O)CCCC3
  A: -14%; B: -1%; C: 0%; D: 26µM*; E: 14%; F: 20%
28: Cc1ccc2c(CC(=O)N(Cc3ccc(N(C)C)cc3)Cc3ccco3)coc2c1C
  A: -5%; B: -4%; C: 4%; D: 23µM*; E: 5%; F: .
29: CC(=O)N1CCN(c2ccc(NCc3cccc(C)c3)cc2)CC1
  A: -3%; B: 1%; C: 6%; D: 15µM*; E: .; F: -6%
30: COc1cc(CNc2ccc(N3CCN(C(C)=O)CC3)cc2)ccc1OCc1ccc(F)cc1
  A: -19%; B: -2%; C: 13%; D: 16µM*; E: -8%; F: 1%

The list goes on.
Short keys: A = A549 viability; B = GRP78 ERSR act; C = Nrf2 ARE act; D = Nrf2 inh; E = miR-21 reporter; F = Mito fusion act
31: CC(=O)N[C@@H](CC(C)C)C(=O)N[C@@H](CCCNC(=N)N)C(=O)N[C@@H](Cc1cnc[nH]1)C(=O)N[C@@H](Cc1ccc(O)cc1)C(=O)N[C@@H](CC(C)C)C(=O)N[C@@H](CC(N)=O)C(=O)N[C@@H](CC(C)C)C(=O)N[C@@H](CC(C)C)C(=O)N[C@H](C(=O)N[C@@H](CCCNC(=N)N)C(=O)N[C@@H](CCC(N)=O)C(=O)N[C@@H](CCCNC(=N)N)C(=O)N[C@@H](Cc1ccc(O)cc1)C(N)=O)[C@@H](C)O
  A: .; B: -7%; C: .; D: .; E: .; F: .
32: N#CC(Sc1ccccn1)c1ccc(Cl)cc1 (configuration not stated)
  A: 0%; B: 2%; C: 19%; D: 13µM*; E: 1%; F: ?
33: Cc1sc2nc(SCC(=O)NCCOCCO)nc(N)c2c1C
  A: 1%; B: -3%; C: -1%; D: -6%; E: -5%; F: -1%
34: Cc1ccc(NC(=O)c2ccc3c(c2)NC(=O)c2ccccc2S3)cc1
  A: ?; B: -4%; C: 4%; D: 16µM*; E: ?; F: .
35: CCOC(=O)c1ccc(NC(=O)c2ccc3c(c2)NC(=O)c2ccccc2S3)cc1
  A: 1%; B: -4%; C: 0%; D: 8%; E: 6%; F: .
36: CCN1C/C(=C/c2cccc([N+](=O)[O-])c2)C(=O)/C(=C/c2cccc([N+](=O)[O-])c2)C1
  A: -14%; B: -14%; C: 13µM*; D: 10%; E: ?; F: 16%
37: O=C1NC(=Nc2ccccc2Cl)S/C1=C\c1cccc([N+](=O)[O-])c1
  A: -2%; B: 1%; C: ?; D: 29%; E: 5%; F: -23%
38: CC1Cc2cc(/C=C3/SC(=S)NC3=O)ccc2O1 (configuration not stated)
  A: 13µM*; B: 6%; C: 3%; D: ?; E: -21%; F: 5%
39: CCN(CC)c1ccc(C=C2SC(=S)NC2=O)cc1
  A: ?; B: 0%; C: 3%; D: -2%; E: .; F: .
40: O=C1NC(=S)S/C1=C\c1cccc([N+](=O)[O-])c1
  A: ?; B: 0%; C: 4%; D: 18µM*; E: .; F: .
41: CC(C)CC1(C2CCCC2)NC(=O)NC1=O (configuration not stated)
  A: 1%; B: -7%; C: 0%; D: 1%; E: .; F: .

Looked up one by one from above:
Short keys: A = A549 viability; B = GRP78 ERSR act; C = Nrf2 ARE act; D = Nrf2 inh; E = miR-21 reporter; F = Mito fusion act
14: COc1ccccc1N1CCN(S(=O)(=O)c2ccc(-c3cc(C(F)(F)F)on3)s2)CC1
  A: ?; B: -4%; C: -1%; D: -21%; E: 8%; F: .
38: CC1Cc2cc(/C=C3/SC(=S)NC3=O)ccc2O1 (configuration not stated)
  A: 13µM*; B: 6%; C: 3%; D: ?; E: -21%; F: 5%
20: Cc1nc(-c2ccc(S(=O)(=O)N(C)Cc3ccccc3)cc2)co1
  A: 9%; B: -1%; C: 1%; D: .; E: -8%; F: .
4: COc1ccc(S(=O)(=O)N2Cc3ccccc3CC2C(=O)O)cc1OC (configuration not stated)
  A: 1%; B: -5%; C: -1%; D: 1%; E: -4%; F: 0%

Screening results (PubChem)
